Drawing on PubChem BioAssay (NCI), this text covers growth for 30 compounds.

Values joined by “and” are separate entries in the source; they are usually repeats but may differ in a detail not shown here. Equal entries are not always repeated. The list shows a part of the results, in another mix than the full data.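 Single-dose data. Exposure time 48 hours. Values below 10 considered active.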 Some salts and complexes are drawn in separate pieces, as the source files them; their charges need not balance. Active and inactive are the calls of the source.

For the assay, the system named is M14 melanoma. Kind of assay: NCI-60 one-dose screen, 48 h (100 = growth as untreated, 0 = no growth, -100 = all killed). The settings on record: 10 µM.
Regarding `CCCOP(=S)(Cl)OCCC`, the growth was inactive: 109%. As for `CN(C)CCS`, the growth was inactive: 104% and inactive: 99.4%. Consider `O=C(O)C1(O)c2ccccc2-c2ccccc21`, for which the growth was inactive: 97.5% and inactive: 96.8%.

As for `Nc1cccc(Cl)c1.O=[N+]([O-])c1cc([N+](=O)[O-])c(O)c([N+](=O)[O-])c1`, the growth is inactive: 97%.

Consider `OCCSCCO`, for which the growth was inactive: 95.6%.

As to `Nc1cc([As](Cl)Cl)cc(N)c1O`, the growth is inactive: 82.3%. In the case of `O=[N+]([O-])N(CCN(CC(Br)([N+](=O)[O-])[N+](=O)[O-])[N+](=O)[O-])CC(Br)([N+](=O)[O-])[N+](=O)[O-]`, the growth was inactive: 98.7%.

Take `O=C1N([N+](=O)[O-])CCN1[N+](=O)[O-]`: the growth was inactive: 97.6%. On to `CC[N+]([O-])(CC)Cc1ccccc1.O=[N+]([O-])c1cc([N+](=O)[O-])c(S(=O)(=O)O)c([N+](=O)[O-])c1`, for which the growth was inactive: 102%.

For `CP(=O)(OCCCl)N(CCCl)CCCl` (stereo not given), the growth was inactive: 95.7%. The same measure for `CN(CCO)CCCl.O=[N+]([O-])c1cc([N+](=O)[O-])c(O)c([N+](=O)[O-])c1`: inactive: 102%. In the case of `CCN(CC)CCOC(=O)C(O)(c1ccccc1)c1cc(C)c(C)c(C)c1C` (stereo not given), the growth was inactive: 92.4%. As for `CCN(CC)CCOC(=O)C(O)(c1ccccc1)c1cc(C)cc(C)c1C` (stereo not given), the growth is inactive: 98.9%. In the case of `CCN(C)CC.O=[N+]([O-])c1cc([N+](=O)[O-])c(O)c([N+](=O)[O-])c1`, the growth is inactive: 93.7%. `O=C(Cl)c1c([N+](=O)[O-])cc([N+](=O)[O-])cc1[N+](=O)[O-]`: the growth is inactive: 84.7%.

As to `COc1ccc(C(O)(C(=O)OCCN2CCCCC2)c2ccc(OC)cc2)cc1`, the growth is inactive: 102%.

Consider `Cc1c([N+](=O)[O-])c(C)c([N+](=O)[O-])c(C)c1[N+](=O)[O-]`, for which the growth was inactive: 110%. As to `O=C(OCCN1CCCCCCCC1)C(O)(c1ccccc1)c1ccccc1`, the growth was inactive: 105%.

As to `CN/C(N)=N/[N+](=O)[O-]`, the growth is inactive: 99.5%. As for `CCOC(=O)Nc1c([N+](=O)[O-])cc([N+](=O)[O-])cc1[N+](=O)[O-]`, the growth is inactive: 96.9%. Regarding `O=[N+]([O-])c1cc([N+](=O)[O-])c(Nc2nnnn2CCO)c([N+](=O)[O-])c1`, the growth is inactive: 102%. As for `Cc1c([N+](=O)[O-])cc([N+](=O)[O-])c(Br)c1[N+](=O)[O-]`, the growth is inactive: 29.3%. With `CN1CCN(CCOC(=O)C(O)(c2ccccc2)c2ccccc2)CC1`, the growth is inactive: 98.6%. On to `O=[N+]([O-])c1cc([N+](=O)[O-])c(O)c([N+](=O)[O-])c1.c1ccc([I+]c2ccccc2)cc1`, for which the growth is inactive: 58.5%. On to `Nc1cc([N+](=O)[O-])cc([N+](=O)[O-])c1O`, for which the growth was inactive: 102%. `CC(C)N1CCN(CCOC(=O)C(O)(c2ccccc2)c2ccccc2)CC1`: the growth was inactive: 96.8%.

Regarding `CC(C)N(CCCl)C(C)C`, the growth is inactive: 106%. With `O=[N+]([O-])OCCOc1ccc([N+](=O)[O-])cc1[N+](=O)[O-]`, the growth is inactive: 112%. Regarding `O=[N+]([O-])N(CCOC(N(F)F)(N(F)F)N(F)F)CC([N+](=O)[O-])([N+](=O)[O-])[N+](=O)[O-]`, the growth was inactive: 101%. `NN/C(N)=N/[N+](=O)[O-]`: the growth is inactive: 97.3%.
